Measurements as given in ChEMBL document CHEMBL3860038, “Discovery of (R,E)-N-(7-Chloro-1-(1-[4-(dimethylamino)but-2-enoyl]azepan-3-yl)-1H-benzo[d]imidazol-2-yl)-2-methylisonicotinamide (EGF816), a Novel, Potent, and WT Sparing Covalent Inhibitor of Oncogenic (L858R, ex19del) and Resistant (T790M) EGFR Mutants for the Treatment of EGFR Mutant …” (J Med Chem, 2016).

Chains of the proteins cited; added tags and fusions are not shown. Residues count along the entry.
UniProt P00533, 25-1210 T790M/L858R limits assumed: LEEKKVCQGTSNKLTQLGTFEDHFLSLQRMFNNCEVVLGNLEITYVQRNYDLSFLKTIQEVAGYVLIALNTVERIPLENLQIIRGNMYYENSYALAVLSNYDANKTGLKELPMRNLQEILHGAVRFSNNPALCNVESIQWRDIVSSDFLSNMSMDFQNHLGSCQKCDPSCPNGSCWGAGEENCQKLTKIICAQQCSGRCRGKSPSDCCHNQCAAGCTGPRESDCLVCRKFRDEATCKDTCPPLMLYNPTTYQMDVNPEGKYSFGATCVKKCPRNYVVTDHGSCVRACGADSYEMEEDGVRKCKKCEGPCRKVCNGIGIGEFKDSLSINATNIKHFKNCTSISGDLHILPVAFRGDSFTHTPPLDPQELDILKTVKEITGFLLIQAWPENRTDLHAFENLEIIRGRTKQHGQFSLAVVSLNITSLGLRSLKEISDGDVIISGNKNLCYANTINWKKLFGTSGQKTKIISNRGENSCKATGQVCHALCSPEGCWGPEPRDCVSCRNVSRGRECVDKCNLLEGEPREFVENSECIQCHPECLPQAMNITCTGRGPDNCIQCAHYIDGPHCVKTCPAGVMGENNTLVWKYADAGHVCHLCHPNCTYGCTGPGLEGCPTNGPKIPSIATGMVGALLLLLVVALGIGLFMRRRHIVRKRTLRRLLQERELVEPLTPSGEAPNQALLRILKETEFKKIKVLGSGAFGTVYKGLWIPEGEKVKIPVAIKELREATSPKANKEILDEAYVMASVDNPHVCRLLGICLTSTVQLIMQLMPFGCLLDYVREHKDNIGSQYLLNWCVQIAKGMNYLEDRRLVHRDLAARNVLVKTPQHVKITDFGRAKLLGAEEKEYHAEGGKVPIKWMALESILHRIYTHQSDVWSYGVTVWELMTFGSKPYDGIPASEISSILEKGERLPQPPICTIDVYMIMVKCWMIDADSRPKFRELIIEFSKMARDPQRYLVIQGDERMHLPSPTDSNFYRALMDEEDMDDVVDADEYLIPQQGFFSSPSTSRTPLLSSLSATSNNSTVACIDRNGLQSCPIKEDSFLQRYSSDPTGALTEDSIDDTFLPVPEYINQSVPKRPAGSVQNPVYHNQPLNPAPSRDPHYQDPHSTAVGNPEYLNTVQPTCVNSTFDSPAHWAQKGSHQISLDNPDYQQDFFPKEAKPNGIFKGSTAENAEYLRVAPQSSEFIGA
UniProt P00533, whole entry: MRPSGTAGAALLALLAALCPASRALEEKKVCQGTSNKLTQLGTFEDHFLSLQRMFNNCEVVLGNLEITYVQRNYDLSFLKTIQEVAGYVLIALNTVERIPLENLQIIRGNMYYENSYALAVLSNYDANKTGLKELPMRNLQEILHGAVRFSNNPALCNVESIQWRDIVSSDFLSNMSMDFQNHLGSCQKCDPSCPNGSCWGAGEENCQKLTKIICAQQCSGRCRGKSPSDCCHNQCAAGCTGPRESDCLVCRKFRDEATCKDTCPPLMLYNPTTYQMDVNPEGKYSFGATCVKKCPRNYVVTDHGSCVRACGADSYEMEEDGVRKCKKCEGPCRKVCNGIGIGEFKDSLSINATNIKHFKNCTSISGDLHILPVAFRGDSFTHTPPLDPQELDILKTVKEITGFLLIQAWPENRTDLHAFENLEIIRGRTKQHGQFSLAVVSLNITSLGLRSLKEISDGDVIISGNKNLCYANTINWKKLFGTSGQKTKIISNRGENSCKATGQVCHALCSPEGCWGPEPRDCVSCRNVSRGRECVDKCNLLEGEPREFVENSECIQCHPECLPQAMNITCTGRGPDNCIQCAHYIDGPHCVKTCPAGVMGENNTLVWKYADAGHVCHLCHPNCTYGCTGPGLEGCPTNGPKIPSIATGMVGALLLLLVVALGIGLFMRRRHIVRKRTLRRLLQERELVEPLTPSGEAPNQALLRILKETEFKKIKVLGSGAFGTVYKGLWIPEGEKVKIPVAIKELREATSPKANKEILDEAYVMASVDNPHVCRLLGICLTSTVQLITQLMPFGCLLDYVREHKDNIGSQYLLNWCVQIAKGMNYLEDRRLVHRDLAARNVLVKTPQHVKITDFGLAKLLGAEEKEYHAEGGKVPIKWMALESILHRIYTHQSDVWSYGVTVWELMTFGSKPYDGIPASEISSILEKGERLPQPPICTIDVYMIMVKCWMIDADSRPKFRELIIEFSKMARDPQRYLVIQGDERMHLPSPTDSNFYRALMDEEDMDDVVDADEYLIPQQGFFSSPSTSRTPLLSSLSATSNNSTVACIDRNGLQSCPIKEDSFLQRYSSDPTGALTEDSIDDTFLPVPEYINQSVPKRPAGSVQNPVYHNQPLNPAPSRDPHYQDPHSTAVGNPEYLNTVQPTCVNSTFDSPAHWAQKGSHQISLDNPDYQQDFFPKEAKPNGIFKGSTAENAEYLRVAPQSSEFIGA
UniProt P00533, 25-1210 L858R limits assumed: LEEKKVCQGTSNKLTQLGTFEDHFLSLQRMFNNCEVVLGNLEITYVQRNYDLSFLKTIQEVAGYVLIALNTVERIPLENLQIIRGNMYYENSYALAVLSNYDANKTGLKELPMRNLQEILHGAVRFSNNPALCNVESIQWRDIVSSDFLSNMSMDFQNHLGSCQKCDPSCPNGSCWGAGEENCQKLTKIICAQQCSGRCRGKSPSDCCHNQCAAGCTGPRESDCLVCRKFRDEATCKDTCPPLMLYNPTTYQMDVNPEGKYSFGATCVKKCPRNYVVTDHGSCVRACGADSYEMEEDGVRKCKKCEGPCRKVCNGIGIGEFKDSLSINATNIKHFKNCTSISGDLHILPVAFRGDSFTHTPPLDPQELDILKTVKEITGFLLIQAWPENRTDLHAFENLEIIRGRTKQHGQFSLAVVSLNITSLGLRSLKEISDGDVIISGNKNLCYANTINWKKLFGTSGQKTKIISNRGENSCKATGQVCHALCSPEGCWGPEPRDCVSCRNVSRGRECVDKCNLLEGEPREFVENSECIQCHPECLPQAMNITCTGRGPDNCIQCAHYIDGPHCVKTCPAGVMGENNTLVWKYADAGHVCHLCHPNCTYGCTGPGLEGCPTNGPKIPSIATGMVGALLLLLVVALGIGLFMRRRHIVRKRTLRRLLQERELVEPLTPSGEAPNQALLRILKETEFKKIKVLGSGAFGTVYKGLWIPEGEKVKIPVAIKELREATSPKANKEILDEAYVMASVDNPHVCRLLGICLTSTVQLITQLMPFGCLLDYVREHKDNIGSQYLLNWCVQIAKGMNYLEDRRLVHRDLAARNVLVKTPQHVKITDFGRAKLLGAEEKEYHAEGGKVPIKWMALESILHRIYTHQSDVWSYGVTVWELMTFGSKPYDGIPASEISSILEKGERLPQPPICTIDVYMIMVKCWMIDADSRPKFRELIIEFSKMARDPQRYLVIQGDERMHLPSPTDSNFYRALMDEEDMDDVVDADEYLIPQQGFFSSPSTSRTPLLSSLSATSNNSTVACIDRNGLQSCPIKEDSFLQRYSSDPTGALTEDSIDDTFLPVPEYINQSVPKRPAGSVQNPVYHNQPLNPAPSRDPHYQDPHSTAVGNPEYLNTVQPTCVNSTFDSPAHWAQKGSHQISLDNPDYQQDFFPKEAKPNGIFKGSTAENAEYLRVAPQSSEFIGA

How the values were obtained:
Assay type in all cases: cell-based
[1] = biological target: Epidermal growth factor receptor (Homo sapiens, UniProt P00533, L858R/T790M); assay: Inhibition of EGFR L858R/T790M mutant phosphorylation in human patient derived H1975 cells incubated for 3 hrs by ELISA method
[2] = biological target: Epidermal growth factor receptor (Homo sapiens, UniProt P00533); assay: Inhibition of wild type EGFR phosphorylation in human HaCaT cells incubated for 3 hrs by ELISA method
[3] = biological target: Epidermal growth factor receptor (Homo sapiens, UniProt P00533, L858R); assay: Inhibition of EGFR L858R mutant phosphorylation in human patient derived H3255 cells incubated for 3 hrs by ELISA method

SMILES: Cc1cc(C(=O)Nc2nc3cccc(Cl)c3n2[C@@H]2CCCCN(C(=O)/C=C/CN(C)C)C2)ccn1 [NAZARTINIB]
- IC50 [1]: 4.18 nM
- IC50 [2]: 161 nM
- IC50 [3]: 6.11 nM
